Measured values taken from paper PMC9569420 (Communications Biology, 2022).
“And” between values parts separate entries of the source, which are not always exact repeats. Equal entries are not always repeated.

Protein sequences, listed by entry. Tags and fused reporters are not part of them. Lines headed by an entry give the natural chain unless they say otherwise; changes in a name come on top. Residues count along the entry.
UniProt Q96KB5: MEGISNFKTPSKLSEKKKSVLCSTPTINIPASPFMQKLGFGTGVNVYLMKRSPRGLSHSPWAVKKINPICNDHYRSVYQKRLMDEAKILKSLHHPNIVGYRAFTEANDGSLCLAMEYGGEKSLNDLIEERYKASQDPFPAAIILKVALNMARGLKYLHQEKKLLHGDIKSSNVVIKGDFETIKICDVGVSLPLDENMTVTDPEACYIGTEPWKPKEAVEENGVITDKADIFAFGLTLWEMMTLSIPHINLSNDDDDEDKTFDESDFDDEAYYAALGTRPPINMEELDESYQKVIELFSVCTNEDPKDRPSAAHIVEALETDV
UniProt Q8WTQ7: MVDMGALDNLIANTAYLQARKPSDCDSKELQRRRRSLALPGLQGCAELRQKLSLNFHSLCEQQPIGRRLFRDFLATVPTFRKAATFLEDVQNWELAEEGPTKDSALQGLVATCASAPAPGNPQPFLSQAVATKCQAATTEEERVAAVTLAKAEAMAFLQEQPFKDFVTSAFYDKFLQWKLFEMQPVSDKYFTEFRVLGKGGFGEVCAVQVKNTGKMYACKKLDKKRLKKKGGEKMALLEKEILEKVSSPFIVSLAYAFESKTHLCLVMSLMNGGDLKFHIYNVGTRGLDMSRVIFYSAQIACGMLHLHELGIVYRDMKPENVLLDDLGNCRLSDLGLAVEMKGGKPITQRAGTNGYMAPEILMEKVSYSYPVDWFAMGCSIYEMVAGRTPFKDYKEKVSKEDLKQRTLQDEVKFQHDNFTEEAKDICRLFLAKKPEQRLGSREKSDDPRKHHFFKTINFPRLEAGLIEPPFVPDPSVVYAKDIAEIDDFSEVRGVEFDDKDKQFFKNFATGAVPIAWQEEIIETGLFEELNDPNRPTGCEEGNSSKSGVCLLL
UniProt Q00526: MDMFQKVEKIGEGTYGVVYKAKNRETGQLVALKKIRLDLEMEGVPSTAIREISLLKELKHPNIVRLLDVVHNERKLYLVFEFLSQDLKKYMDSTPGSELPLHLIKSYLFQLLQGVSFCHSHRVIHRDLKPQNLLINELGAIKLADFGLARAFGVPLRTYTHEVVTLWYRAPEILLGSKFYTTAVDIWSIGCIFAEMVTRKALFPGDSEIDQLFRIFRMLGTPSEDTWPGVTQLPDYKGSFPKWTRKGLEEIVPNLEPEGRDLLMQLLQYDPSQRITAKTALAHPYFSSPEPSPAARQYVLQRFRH
UniProt Q9NQU5: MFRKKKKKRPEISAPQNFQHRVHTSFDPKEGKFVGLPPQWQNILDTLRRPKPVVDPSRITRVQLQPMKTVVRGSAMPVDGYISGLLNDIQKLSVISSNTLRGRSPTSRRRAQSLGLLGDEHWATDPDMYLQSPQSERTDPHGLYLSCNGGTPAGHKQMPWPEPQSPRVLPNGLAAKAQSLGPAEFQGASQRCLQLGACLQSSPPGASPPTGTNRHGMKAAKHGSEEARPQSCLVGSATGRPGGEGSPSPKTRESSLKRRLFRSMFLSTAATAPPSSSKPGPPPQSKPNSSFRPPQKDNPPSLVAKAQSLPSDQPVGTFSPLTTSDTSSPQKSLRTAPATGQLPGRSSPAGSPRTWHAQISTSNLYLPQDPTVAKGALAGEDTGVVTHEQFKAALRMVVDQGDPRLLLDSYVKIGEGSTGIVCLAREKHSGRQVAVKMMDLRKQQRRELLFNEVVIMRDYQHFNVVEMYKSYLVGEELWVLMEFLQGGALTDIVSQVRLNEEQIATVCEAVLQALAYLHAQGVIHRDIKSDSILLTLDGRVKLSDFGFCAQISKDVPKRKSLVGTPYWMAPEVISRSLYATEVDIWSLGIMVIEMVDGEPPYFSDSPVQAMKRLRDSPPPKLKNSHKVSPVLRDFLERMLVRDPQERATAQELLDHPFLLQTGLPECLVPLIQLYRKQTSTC
UniProt Q7L7X3: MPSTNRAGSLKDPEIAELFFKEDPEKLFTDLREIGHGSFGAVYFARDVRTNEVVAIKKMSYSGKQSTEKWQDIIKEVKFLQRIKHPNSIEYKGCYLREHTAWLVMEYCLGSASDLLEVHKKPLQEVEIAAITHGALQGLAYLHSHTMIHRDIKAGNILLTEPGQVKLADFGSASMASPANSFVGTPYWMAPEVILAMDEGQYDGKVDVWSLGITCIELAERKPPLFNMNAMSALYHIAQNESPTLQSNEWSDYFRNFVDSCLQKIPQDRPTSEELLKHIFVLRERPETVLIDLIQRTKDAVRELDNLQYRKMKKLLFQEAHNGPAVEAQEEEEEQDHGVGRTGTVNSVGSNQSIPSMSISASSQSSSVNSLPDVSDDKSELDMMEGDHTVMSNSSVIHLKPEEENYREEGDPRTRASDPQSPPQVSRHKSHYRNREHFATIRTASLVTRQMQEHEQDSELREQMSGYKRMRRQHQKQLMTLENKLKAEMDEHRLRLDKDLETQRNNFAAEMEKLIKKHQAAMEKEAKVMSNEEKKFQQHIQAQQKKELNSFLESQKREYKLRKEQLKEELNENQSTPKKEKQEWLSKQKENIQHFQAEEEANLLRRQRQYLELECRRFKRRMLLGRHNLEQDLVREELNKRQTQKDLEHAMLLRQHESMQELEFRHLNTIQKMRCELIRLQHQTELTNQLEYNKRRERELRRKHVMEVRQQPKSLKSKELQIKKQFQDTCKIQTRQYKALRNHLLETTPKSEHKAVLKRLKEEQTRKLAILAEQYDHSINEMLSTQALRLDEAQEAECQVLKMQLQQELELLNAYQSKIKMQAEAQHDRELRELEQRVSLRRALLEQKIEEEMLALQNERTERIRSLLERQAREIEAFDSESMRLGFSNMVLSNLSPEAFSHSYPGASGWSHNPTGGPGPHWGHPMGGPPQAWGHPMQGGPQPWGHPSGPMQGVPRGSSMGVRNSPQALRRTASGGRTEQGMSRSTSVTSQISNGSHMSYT
UniProt P23443: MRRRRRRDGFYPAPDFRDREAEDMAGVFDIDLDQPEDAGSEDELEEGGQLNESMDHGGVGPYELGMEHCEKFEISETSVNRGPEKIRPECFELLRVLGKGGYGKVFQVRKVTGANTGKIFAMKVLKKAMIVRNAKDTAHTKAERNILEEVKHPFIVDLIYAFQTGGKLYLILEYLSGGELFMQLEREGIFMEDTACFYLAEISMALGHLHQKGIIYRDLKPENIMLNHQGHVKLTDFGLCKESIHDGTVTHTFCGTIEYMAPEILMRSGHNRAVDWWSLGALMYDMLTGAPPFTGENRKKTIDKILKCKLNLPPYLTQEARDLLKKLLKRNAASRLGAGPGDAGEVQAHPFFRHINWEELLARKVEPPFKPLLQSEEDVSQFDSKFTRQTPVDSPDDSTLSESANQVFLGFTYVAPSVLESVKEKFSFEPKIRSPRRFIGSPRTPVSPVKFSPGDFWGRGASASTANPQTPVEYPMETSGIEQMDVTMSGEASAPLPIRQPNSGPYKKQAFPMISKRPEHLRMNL
UniProt Q16816: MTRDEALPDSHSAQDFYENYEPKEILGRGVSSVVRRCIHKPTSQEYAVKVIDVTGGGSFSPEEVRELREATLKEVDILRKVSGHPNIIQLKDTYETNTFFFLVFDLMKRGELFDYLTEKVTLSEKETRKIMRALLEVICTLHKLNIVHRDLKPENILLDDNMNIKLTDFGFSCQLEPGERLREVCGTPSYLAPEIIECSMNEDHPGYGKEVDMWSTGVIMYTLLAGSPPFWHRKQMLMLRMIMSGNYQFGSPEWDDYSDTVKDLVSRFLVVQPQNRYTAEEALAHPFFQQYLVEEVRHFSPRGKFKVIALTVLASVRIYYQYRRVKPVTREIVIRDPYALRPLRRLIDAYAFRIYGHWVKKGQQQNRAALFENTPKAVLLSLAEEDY
UniProt P36896, 24-505: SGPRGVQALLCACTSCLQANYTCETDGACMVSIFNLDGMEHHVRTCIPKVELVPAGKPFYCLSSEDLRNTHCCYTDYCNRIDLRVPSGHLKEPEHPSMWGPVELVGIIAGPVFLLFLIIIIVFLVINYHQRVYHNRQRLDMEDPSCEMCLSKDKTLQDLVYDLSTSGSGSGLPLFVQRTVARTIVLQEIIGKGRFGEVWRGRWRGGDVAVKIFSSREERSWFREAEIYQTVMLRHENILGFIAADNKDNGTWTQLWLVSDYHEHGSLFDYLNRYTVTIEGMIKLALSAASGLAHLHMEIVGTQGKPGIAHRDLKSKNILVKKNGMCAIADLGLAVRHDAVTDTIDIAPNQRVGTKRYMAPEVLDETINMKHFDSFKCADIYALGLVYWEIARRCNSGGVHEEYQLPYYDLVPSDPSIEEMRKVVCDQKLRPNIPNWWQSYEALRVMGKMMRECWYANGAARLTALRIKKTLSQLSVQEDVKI
UniProt Q8IVH8: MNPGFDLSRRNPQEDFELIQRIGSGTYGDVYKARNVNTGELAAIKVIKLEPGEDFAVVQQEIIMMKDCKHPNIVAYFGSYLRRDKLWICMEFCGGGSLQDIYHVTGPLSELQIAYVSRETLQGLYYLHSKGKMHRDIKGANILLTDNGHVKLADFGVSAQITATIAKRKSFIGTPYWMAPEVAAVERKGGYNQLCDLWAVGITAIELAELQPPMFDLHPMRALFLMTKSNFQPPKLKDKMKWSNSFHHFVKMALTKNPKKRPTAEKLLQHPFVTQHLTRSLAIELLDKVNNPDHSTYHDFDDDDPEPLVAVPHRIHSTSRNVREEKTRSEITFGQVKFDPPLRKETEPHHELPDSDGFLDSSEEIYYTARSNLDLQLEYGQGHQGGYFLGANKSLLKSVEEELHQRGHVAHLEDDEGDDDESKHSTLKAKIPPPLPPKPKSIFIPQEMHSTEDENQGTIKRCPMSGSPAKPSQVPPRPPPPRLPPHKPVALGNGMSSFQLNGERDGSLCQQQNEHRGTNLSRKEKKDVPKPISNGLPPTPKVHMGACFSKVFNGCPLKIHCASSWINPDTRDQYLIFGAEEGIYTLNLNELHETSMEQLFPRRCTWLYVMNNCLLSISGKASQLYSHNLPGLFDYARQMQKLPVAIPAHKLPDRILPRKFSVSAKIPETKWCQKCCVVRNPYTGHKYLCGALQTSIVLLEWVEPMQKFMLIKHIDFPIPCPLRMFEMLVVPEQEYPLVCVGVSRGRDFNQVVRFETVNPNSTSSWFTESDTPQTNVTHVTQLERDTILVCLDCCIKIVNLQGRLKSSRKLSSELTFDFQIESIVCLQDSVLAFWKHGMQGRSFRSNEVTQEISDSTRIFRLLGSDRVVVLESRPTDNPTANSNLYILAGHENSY
UniProt P06241, whole entry: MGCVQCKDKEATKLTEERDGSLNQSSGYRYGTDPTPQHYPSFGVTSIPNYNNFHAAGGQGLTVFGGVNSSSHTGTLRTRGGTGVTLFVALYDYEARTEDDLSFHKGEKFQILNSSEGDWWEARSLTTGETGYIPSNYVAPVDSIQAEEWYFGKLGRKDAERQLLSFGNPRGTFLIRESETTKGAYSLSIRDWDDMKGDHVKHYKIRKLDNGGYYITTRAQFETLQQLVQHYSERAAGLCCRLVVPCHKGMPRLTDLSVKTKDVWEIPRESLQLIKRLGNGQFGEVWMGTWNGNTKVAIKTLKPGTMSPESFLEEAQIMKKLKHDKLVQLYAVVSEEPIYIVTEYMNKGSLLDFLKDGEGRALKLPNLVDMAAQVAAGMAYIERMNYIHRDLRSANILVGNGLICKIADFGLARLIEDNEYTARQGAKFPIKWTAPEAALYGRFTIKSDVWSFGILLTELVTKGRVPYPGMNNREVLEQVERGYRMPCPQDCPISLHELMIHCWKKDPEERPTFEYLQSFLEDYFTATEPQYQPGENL
UniProt Q16584: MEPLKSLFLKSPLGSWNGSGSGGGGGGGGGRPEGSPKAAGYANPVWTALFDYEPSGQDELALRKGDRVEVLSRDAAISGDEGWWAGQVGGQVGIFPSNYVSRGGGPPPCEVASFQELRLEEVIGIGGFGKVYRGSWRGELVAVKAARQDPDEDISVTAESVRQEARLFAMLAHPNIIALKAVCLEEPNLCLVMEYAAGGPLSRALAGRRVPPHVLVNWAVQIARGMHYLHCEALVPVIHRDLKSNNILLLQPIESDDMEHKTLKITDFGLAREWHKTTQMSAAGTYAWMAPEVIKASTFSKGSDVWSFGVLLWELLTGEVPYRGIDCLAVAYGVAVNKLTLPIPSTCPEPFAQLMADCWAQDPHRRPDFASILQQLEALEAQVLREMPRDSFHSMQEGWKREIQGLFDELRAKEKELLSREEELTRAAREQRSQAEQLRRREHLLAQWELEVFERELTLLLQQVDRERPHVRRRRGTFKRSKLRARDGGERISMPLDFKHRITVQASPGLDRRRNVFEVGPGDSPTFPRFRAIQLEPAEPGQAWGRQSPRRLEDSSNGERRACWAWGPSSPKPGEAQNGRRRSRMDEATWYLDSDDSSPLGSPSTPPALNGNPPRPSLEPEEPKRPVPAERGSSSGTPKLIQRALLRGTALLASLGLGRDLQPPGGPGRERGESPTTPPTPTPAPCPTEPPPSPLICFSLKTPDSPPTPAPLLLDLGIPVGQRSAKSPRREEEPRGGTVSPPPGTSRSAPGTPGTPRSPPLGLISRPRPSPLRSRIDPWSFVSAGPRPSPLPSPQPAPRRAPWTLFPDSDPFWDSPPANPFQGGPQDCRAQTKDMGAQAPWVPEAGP

Key:
Experiment in all cases: HotSpot kinase assay
Type in all cases: biochemical
Settings in all cases: 10µM
PBK/TOPK = molecular target: T1, PBK/TOPK (Homo sapiens, UniProt Q96KB5)
T1 construct: purchased Reaction Biology Corporation

CDK2/cyclin A1 = molecular target: T2, CDK2/cyclin A1 (Homo sapiens, UniProt P24941)
T2 construct: purchased Reaction Biology Corporation

AMPK(A2/B1/G1) = molecular target: T3, AMPK(A2/B1/G1) (Homo sapiens, UniProt P54646)
T3 construct: purchased Reaction Biology Corporation

EEF2K = molecular target: T4, EEF2K (Homo sapiens, UniProt O00418)
T4 construct: purchased Reaction Biology Corporation

PDGFRb = molecular target: T5, PDGFRb (Homo sapiens, UniProt P09619)
T5 construct: purchased Reaction Biology Corporation

GRK7 = molecular target: T6, GRK7 (Homo sapiens, UniProt Q8WTQ7)
T6 construct: purchased Reaction Biology Corporation

SGK1 = molecular target: T7, SGK1 (Homo sapiens, UniProt O00141)
T7 construct: purchased Reaction Biology Corporation

CDK3/cyclin E2 = molecular target: T8, CDK3/cyclin E2 (Homo sapiens, UniProt Q00526)
T8 construct: purchased Reaction Biology Corporation

MAK = molecular target: T9, MAK (Homo sapiens, UniProt P20794)
T9 construct: purchased Reaction Biology Corporation

CDK18/cyclin Y (PCTK3) = molecular target: T10, CDK18/cyclin Y (PCTK3) (Homo sapiens, UniProt Q07002)
T10 construct: purchased Reaction Biology Corporation

CAMK2g = molecular target: T11, CAMK2g (Homo sapiens, UniProt Q13555)
T11 construct: purchased Reaction Biology Corporation

DYRK1B = molecular target: T12, DYRK1B (Homo sapiens, UniProt Q9Y463)
T12 construct: purchased Reaction Biology Corporation

STK38L/NDR2 = molecular target: T13, STK38L/NDR2 (Homo sapiens, UniProt Q9Y2H1)
T13 construct: purchased Reaction Biology Corporation

STK32C/YANK3 = molecular target: T14, STK32C/YANK3 (Homo sapiens, UniProt Q86UX6)
T14 construct: purchased Reaction Biology Corporation

PAK6 = molecular target: T15, PAK6 (Homo sapiens, UniProt Q9NQU5)
T15 construct: purchased Reaction Biology Corporation

AMPK (A2/B1/G3) = molecular target: T16, AMPK (A2/B1/G3) (Homo sapiens, UniProt P54646)
T16 construct: purchased Reaction Biology Corporation

SYK = molecular target: T17, SYK (Homo sapiens, UniProt P43405)
T17 construct: purchased Reaction Biology Corporation

ALK6/BMPR1B = molecular target: T18, ALK6/BMPR1B (Homo sapiens, UniProt O00238)
T18 construct: purchased Reaction Biology Corporation

DRAK1/STK17A = molecular target: T19, DRAK1/STK17A (Homo sapiens, UniProt Q9UEE5)
T19 construct: purchased Reaction Biology Corporation

TAOK1 = molecular target: T20, TAOK1 (Homo sapiens, UniProt Q7L7X3)
T20 construct: purchased Reaction Biology Corporation

CAMK4 = molecular target: T21, CAMK4 (Homo sapiens, UniProt Q16566)
T21 construct: purchased Reaction Biology Corporation

SGK2 = molecular target: T22, SGK2 (Homo sapiens, UniProt Q9HBY8)
T22 construct: purchased Reaction Biology Corporation

LCK2/ICK = molecular target: T23, LCK2/ICK (Homo sapiens, UniProt Q9UPZ9)
T23 construct: purchased Reaction Biology Corporation

MAPKAPK2 = molecular target: T24, MAPKAPK2 (Homo sapiens, UniProt P49137)
T24 construct: purchased Reaction Biology Corporation

P38a/MAPK14 = molecular target: T25, P38a/MAPK14 (Homo sapiens, UniProt Q16539)
T25 construct: purchased Reaction Biology Corporation

BLK = molecular target: T26, BLK (Homo sapiens, UniProt P51451)
T26 construct: purchased Reaction Biology Corporation

c-MER = molecular target: T27, c-MER (Homo sapiens, UniProt Q12866)
T27 construct: purchased Reaction Biology Corporation

ITK = molecular target: T28, ITK (Homo sapiens, UniProt Q08881)
T28 construct: purchased Reaction Biology Corporation

p70S6K/RPS6KB1 = molecular target: T29, p70S6K/RPS6KB1 (Homo sapiens, UniProt P23443)
T29 construct: purchased Reaction Biology Corporation

p70S6Kb/RPS6KB2 = molecular target: T30, p70S6Kb/RPS6KB2 (Homo sapiens, UniProt Q9UBS0)
T30 construct: purchased Reaction Biology Corporation

MAST3 = molecular target: T31, MAST3 (Homo sapiens, UniProt O60307)
T31 construct: purchased Reaction Biology Corporation

PHKg1 = molecular target: T32, PHKg1 (Homo sapiens, UniProt Q16816)
T32 construct: purchased Reaction Biology Corporation

ALK4/ACVR1B = molecular target: T33, ALK4/ACVR1B (Homo sapiens, UniProt P36896)
T33 construct: purchased Reaction Biology Corporation

GLK/MAP4K3 = molecular target: T34, GLK/MAP4K3 (Homo sapiens, UniProt Q8IVH8)
T34 construct: purchased Reaction Biology Corporation

FYN = molecular target: T35, FYN (Homo sapiens, UniProt P06241)
T35 construct: purchased Reaction Biology Corporation

PKCg = molecular target: T36, PKCg (Homo sapiens, UniProt P05129)
T36 construct: purchased Reaction Biology Corporation

CDK2/cyclin O = molecular target: T37, CDK2/cyclin O (Homo sapiens, UniProt P24941)
T37 construct: purchased Reaction Biology Corporation

DYRK1/DYRK1A = molecular target: T38, DYRK1/DYRK1A (Homo sapiens, UniProt Q13627)
T38 construct: purchased Reaction Biology Corporation

PAK3 = molecular target: T39, PAK3 (Homo sapiens, UniProt O75914)
T39 construct: purchased Reaction Biology Corporation

SBK1 = molecular target: T40, SBK1 (Homo sapiens, UniProt Q52WX2)
T40 construct: purchased Reaction Biology Corporation

NEK3 = molecular target: T41, NEK3 (Homo sapiens, UniProt P51956)
T41 construct: purchased Reaction Biology Corporation

MLK3/MAP3K11 = molecular target: T42, MLK3/MAP3K11 (Homo sapiens, UniProt Q16584)
T42 construct: purchased Reaction Biology Corporation

ERK7/MAPK15 = molecular target: T43, ERK7/MAPK15 (Homo sapiens, UniProt Q8TD08)
T43 construct: purchased Reaction Biology Corporation

With `CO[C@@H]1[C@H](N(C)C(=O)CCC(=O)NCc2cn(CCCS(=O)(=O)O)nn2)C[C@H]2O[C@]1(C)n1c3ccccc3c3c4c(c5c6ccccc6n2c5c31)C(=O)NC4` [CIMSS] the “% Enzyme Activity (relative to DMSO controls)” value (PBK/TOPK) was 67.76%, the “% Enzyme Activity (relative to DMSO controls)” value (CDK2/cyclin A1) was 7.85% and the “% Enzyme Activity (relative to DMSO controls)” value (AMPK(A2/B1/G1)) was 0.64%. For the same compound, the “% Enzyme Activity (relative to DMSO controls)” value (EEF2K) was 97.05%, the “% Enzyme Activity (relative to DMSO controls)” value (PDGFRb) was 1.79% and the “% Enzyme Activity (relative to DMSO controls)” value (GRK7) was 6.73%. For the same compound, the “% Enzyme Activity (relative to DMSO controls)” value (SGK1) was 12.71%, the “% Enzyme Activity (relative to DMSO controls)” value (CDK3/cyclin E2) was 20.66% and the “% Enzyme Activity (relative to DMSO controls)” value (MAK) was 12.70%. For the same compound, the “% Enzyme Activity (relative to DMSO controls)” value (CDK18/cyclin Y (PCTK3)) was 36.57%, the “% Enzyme Activity (relative to DMSO controls)” value (CAMK2g) was 0.85% and the “% Enzyme Activity (relative to DMSO controls)” value (DYRK1B) was 0.35%. For the same compound, the “% Enzyme Activity (relative to DMSO controls)” value (STK38L/NDR2) was 22.41%, the “% Enzyme Activity (relative to DMSO controls)” value (STK32C/YANK3) was 20.31% and the “% Enzyme Activity (relative to DMSO controls)” value (PAK6) was 8.98%. For the same compound, the “% Enzyme Activity (relative to DMSO controls)” value (AMPK (A2/B1/G3)) was 0.59%, the “% Enzyme Activity (relative to DMSO controls)” value (SYK) was 0.78% and the “% Enzyme Activity (relative to DMSO controls)” value (ALK6/BMPR1B) was 87.18%. For the same compound, the “% Enzyme Activity (relative to DMSO controls)” value (DRAK1/STK17A) was 17.55%, the “% Enzyme Activity (relative to DMSO controls)” value (TAOK1) was 6.33% and the “% Enzyme Activity (relative to DMSO controls)” value (CAMK4) was 62.68%. The “% Enzyme Activity (relative to DMSO controls)” value (SGK2) was 22.07%, the “% Enzyme Activity (relative to DMSO controls)” value (LCK2/ICK) was 4.44% and the “% Enzyme Activity (relative to DMSO controls)” value (MAPKAPK2) was 67.54%. For the same compound, the “% Enzyme Activity (relative to DMSO controls)” value (P38a/MAPK14) was 100.67%, the “% Enzyme Activity (relative to DMSO controls)” value (BLK) was 0.29% and the “% Enzyme Activity (relative to DMSO controls)” value (c-MER) was 2.15%. For the same compound, the “% Enzyme Activity (relative to DMSO controls)” value (ITK) was 3.38%, the “% Enzyme Activity (relative to DMSO controls)” value (p70S6K/RPS6KB1) was 4.80% and the “% Enzyme Activity (relative to DMSO controls)” value (p70S6Kb/RPS6KB2) was 3.26%. The “% Enzyme Activity (relative to DMSO controls)” value (MAST3) was 104.37%, the “% Enzyme Activity (relative to DMSO controls)” value (PHKg1) was 3.44% and the “% Enzyme Activity (relative to DMSO controls)” value (ALK4/ACVR1B) was 57.94%. For the same compound, the “% Enzyme Activity (relative to DMSO controls)” value (GLK/MAP4K3) was 0.93%, the “% Enzyme Activity (relative to DMSO controls)” value (FYN) was 2.44% and the “% Enzyme Activity (relative to DMSO controls)” value (PKCg) was 1.53%. For the same compound, the “% Enzyme Activity (relative to DMSO controls)” value (CDK2/cyclin O) was 4.80%, the “% Enzyme Activity (relative to DMSO controls)” value (DYRK1/DYRK1A) was 1.92% and the “% Enzyme Activity (relative to DMSO controls)” value (PAK3) was 6.27%. The “% Enzyme Activity (relative to DMSO controls)” value (SBK1) was 76.94%, the “% Enzyme Activity (relative to DMSO controls)” value (NEK3) was 85.95% and the “% Enzyme Activity (relative to DMSO controls)” value (MLK3/MAP3K11) was -0.81% and -1.50%. For the same compound, the “% Enzyme Activity (relative to DMSO controls)” value (ERK7/MAPK15) was 27.60%.
